Among the data in ChEMBL document CHEMBL1152717, “Discovery of mu-opioid selective ligands derived from 1-aminotetralin scaffolds made via metal-catalyzed ring-opening reactions” (Bioorg Med Chem Lett, 2009) are IC50 values, retold here.

Chains of the proteins cited; added tags and fusions are not shown.
UniProt P35372, whole entry: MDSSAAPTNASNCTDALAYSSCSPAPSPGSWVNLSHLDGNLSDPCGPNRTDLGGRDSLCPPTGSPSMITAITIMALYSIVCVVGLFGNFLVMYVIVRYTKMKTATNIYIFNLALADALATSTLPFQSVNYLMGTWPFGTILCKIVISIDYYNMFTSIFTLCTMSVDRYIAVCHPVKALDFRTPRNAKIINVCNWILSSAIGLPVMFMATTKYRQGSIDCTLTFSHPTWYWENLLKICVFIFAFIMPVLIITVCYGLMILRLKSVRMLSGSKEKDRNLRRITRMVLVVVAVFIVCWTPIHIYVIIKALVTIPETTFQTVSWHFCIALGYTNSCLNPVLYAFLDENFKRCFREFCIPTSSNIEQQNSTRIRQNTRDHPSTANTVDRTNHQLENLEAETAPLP
UniProt P41143, whole entry: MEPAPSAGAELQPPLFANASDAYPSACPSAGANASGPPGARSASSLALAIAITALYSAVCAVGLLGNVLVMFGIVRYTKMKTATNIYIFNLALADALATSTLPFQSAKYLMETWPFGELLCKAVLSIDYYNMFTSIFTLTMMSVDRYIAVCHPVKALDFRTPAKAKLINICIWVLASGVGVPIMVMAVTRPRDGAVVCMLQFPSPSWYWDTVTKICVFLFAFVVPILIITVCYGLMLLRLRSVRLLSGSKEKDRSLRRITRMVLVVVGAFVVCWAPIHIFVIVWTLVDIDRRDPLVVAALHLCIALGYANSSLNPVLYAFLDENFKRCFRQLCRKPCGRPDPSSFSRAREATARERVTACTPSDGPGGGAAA

Broadly, the IC50 is the concentration that gives 50% inhibition.

Experiment [1] addresses T1, Mu-type opioid receptor (Homo sapiens, UniProt P35372). The experiment in a line: Displacement of [125I]FK33824 from human cloned mu opioid receptor. On the technique in general: Displacement assays read how much labelled ligand stays bound in the presence of the test substance.
Experiment [2] addresses T1, Mu-type opioid receptor. The experiment can be described thus: Activity at human cloned mu opioid receptor assessed as reversal of DAMGO-induced [35S]GTPgammaS binding. It is filed as functional. (In general: GTPγS is a poorly hydrolysed GTP analogue; its binding reports G protein activation.)
For experiment [3], the target named is Delta-type opioid receptor (Homo sapiens, UniProt P41143). The experiment can be described thus: Displacement of [125I]deltorphin 2 from human cloned delta opioid receptor.

The molecule `COCCN[C@H]1c2ccccc2CC[C@@H]1c1ccsc1` showed an IC50 at Mu-type opioid receptor [1] of 772 nM.
With `COCCN[C@@H]1c2ccccc2CC[C@H]1c1ccsc1`, the IC50 on Mu-type opioid receptor [2] is 19 µM.
For the molecule `COCCNC1c2ccccc2CCC1c1ccsc1` (racemic), the IC50 in experiment [3] was determined as 7.16 µM.
